{
  "source": "patent US9028858B2",
  "about": "(Coloplast A/S, priority 2003, dated 2015)",
  "conditions": "pH 4, no stabilizer",
  "note": "Read-outs that look alike come from different tables or passages of the source.",
  "data": [
    {"smiles": "OO", "note": "[Std H2O2, hydrogen peroxide]", "values": [
      {"measurement": "Calculated degraded amount of H2O2 (%) after 2 years storage at 23° C.", "setting": "0 mM citrate", "value": 15.4, "unit": "%"},
      {"measurement": "Calculated degraded amount of H2O2 (%) after 2 years storage at 23° C.", "setting": "25 mM citrate", "value": 39.2, "unit": "%"}
    ]}
  ]
}
